The results in this text go back to patent US20180080942A1.

This experiment has as its target N-terminal regulatory region of aurora kinase A, residues 1-131 (NAurA) (Homo sapiens (Human)) (UniProt O14965). Kind of experiment: 13C-detected CON NMR, molar ratio apo-CaM:NAurA 0.18:1.

With “calcium-free chicken Calmodulin (apo-CaM) (from UniProt P62149 2-149)”, the decrease in CON peak height, majority of remaining residues within the 54-68 segment of NAurA is > 50%.
